Results taken from patent US20210361742A1 (MICROQUIN, published 2021).

Target: endogenous BI-1 (Bax Inhibitor-1) of HeLa cells (human, UniProt P55061 1-237)
Experiment: co-immunoprecipitation, immunoblot (FIG. 1A legend)

B1: HA-tagged MQ001 (other)
chain: MLSTAADMQGVVTDGMASGLDKDYLKPDDSPSSVNLGCSWNSLTRNLTSPDSRILSSVRDAAASSDNGAQVKVGNRTYRVVVTDNKFCVTRESHSGCFTNLLHRLGWPKGEISRKIEVMLNSSPVNRAMERGAVHSNRPDLPPVDYAPPELPSVDYNSLPVPGNVIGKGGNAVVYEDAEDATKVLKMFTTSQSNEEVTNEVRCFNQYYGAGSAEKIYGDNGDIIGIRMDKINGESLLNISSLPAQAEHAIYDMFDRLEQKGILFIDTTETNVLYDRTRNEFNPIDISSYNISERSWSENQIMQSYHGGKQDLISVVLSKI
binding result: binds
